Assay [1] concerns the target Mu-type opioid receptor (Homo sapiens, UniProt P35372). Nature of the assay: Radioligand Dose-Displacement Binding Assay: Radioligand dose-displacement binding assays for -opioid receptors used 0.3 nM [3H]-diprenorphine (Perkin Elmer, Shelton, Conn.), with […] membrane protein/well in a final volume of 500 ul binding buffer (10 mM MgCl2, 1 mM EDTA, 5% DMSO, 50 mM HEPES, pH 7.4). Reactions were carried out in the absence or presence of increasing concentrations of unlabele.

By UniProt entry, the sequences of proteins in these tests, tags left out.
UniProt P35372, whole entry: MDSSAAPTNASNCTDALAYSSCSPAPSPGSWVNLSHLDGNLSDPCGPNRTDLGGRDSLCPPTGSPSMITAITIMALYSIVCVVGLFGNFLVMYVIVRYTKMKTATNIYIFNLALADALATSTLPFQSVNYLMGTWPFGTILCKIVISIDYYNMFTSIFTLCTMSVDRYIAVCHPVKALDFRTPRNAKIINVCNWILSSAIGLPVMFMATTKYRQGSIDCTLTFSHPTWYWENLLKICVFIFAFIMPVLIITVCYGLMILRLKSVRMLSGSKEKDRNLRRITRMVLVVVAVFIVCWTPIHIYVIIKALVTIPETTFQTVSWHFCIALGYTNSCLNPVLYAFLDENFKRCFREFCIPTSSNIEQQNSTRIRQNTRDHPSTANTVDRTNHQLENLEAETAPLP
UniProt P41143, whole entry: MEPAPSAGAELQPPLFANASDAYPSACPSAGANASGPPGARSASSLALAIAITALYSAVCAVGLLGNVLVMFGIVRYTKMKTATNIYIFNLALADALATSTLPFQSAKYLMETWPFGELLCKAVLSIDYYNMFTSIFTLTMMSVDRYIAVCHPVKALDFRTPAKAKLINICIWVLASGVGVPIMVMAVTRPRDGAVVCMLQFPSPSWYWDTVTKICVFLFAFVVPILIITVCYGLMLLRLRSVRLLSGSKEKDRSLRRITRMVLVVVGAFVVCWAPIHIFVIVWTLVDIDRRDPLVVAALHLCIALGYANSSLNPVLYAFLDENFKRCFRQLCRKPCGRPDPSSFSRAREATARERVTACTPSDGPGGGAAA
UniProt P41145, whole entry: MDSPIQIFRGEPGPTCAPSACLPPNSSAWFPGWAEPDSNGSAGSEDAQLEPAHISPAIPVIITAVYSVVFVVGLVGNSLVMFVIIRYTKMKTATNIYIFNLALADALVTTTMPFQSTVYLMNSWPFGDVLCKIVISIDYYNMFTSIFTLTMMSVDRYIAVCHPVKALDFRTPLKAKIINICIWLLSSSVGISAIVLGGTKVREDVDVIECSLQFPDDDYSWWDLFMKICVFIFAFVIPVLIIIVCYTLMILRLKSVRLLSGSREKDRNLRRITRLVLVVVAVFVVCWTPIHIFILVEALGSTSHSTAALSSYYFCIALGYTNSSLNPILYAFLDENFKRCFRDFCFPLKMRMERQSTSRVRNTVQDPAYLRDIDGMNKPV

Assay [2] deals with Delta-type opioid receptor (Homo sapiens, UniProt P41143). Nature of the assay: Radioligand Dose-Displacement Binding Assay: δ-opioid Receptor Binding Assay Procedures were conducted as follows. Radioligand dose-displacement assays used 0.3 nM [3H]-Naltrindole (Perkin Elmer, Shelton, Conn.; 33.0 Ci/mmole) with 5 μg membrane protein (Perkin Elmer, Shelton, Conn.) in a final volume of 500 μl binding buffer (5 mM MgCl2, 5% DMSO, 50 mM Trizma base, pH 7.4). Non-specific binding w.

For assay [3], the target named is Kappa-type opioid receptor (Homo sapiens, UniProt P41145). As to the kind of experiment: Radioligand Dose-Displacement Binding Assay: Membranes from recombinant HEK-293 cells expressing the human kippa opioid receptor (cloned in house) were prepared by lysing cells in ice cold hypotonic buffer (2.5 mM MgCl2, 50 mM HEPES, pH 7.4) (10 mL/10 cm dish) followed by homogenization with a tissue grinder/Teflon pestle. Membranes were collected by centrifugation at 30,000xg for 15 min at 4 C. a. As to conditions: sf9.

The structures appear in SMILES notation.

As to `CO[C@]12CC[C@@]3(C[C@@H]1COCc1cccc(Cl)c1)[C@H]1Cc4ccc(O)c5c4[C@@]3(CC[N+]1(C)CC1CC1)[C@H]2O5` (some centres undefined), the Ki in assay [1] came out at 0.00626 µM.

With `CO[C@]12CC[C@@]3(C[C@@H]1COCc1ccsc1)[C@H]1Cc4ccc(O)c5c4[C@@]3(CC[N+]1(C)CC1CC1)[C@H]2O5` (some centres undefined), the Ki amounted to 0.202 µM in assay [2], 0.0243 µM in assay [1] and 0.0002 µM in assay [3].

In turn, `CO[C@]12CC[C@@]3(C[C@@H]1COCc1ccc(F)cc1)[C@H]1Cc4ccc(O)c5c4[C@@]3(CC[N+]1(C)CC1CC1)[C@H]2O5` (some centres undefined) yielded a Ki in assay [2] of 0.175 µM.

`CO[C@]12CC[C@@]3(C[C@@H]1COCc1ccc(C)cc1)[C@H]1Cc4ccc(O)c5c4[C@@]3(CC[N+]1(C)CC1CC1)[C@H]2O5` (some centres undefined) came in with a Ki in assay [2] of 0.109 µM.

As to `CO[C@]12CC[C@@]3(C[C@@H]1COCc1ccccc1F)[C@H]1Cc4ccc(O)c5c4[C@@]3(CC[N+]1(C)CC1CC1)[C@H]2O5` (some centres undefined), the Ki in assay [3] was found to be 0.0002 µM.

As for `CO[C@]12CC[C@@]3(C[C@@H]1COCc1cccc(F)c1)[C@H]1Cc4ccc(O)c5c4[C@@]3(CC[N+]1(C)CC1CC1)[C@H]2O5` (some centres undefined), the Ki in assay [1] came to 0.00535 µM.

`CO[C@]12CC[C@@]3(C[C@@H]1COCc1ccccc1)[C@H]1Cc4ccc(O)c5c4[C@@]3(CC[N+]1(C)CC1CC1)[C@H]2O5` (some centres undefined) yielded a Ki in assay [2] of 0.0188 µM.

The Ki is the dissociation constant of the complex between target and ligand, obtained from inhibition or displacement.

The values above are taken from ChEMBL document CHEMBL3638402, “Quarternized buprenorphine analogs” (2015).
